This data set concerns 26 GPCR binding assays, 9 GPCR functional assays, 40 kinase assays, ion channels, proteases, transporter and enzyme assays. An excerpt:
So far oxysterols have been noted to have various physiological activities namely regulate the expression of genes that participate in both sterol and fat metabolism, serve as substrates for the synthesis of bile acids, and are intermediates in the transfer of sterols from the periphery to the liver (Russell, D. W. (2000). Oxysterol biosynthetic enzymes. Biochim. Biophys. Acta 1529, 126-135). […] This included binding assays for 26 different GPCRs, functional assays of 9 different GPCRs, 40 kinase assays, as well as selected ion channels, proteases, transporter and enzyme assays.

Regarding `CC(CO)CCC[C@@H](C)[C@H]1CC[C@H]2[C@@H]3[C@H](O)C=C4C[C@@H](O)CC[C@]4(C)[C@H]3CC[C@]12C` (stereo partly shown) [7a,27DHC, cholest-5-ene-3b,7a,27-triol], the “interaction in safety panel” value is “In none of these assay did we see a significant interaction”.

Source of the values: patent publication US8497075B2, “Methods of identifying a modulator that inhibits the binding between Epstein-Barr virus induced receptor 2 and cholesterol derived ligands” (Novartis AG, priority 2008, dated 2013).
